From US20160208018A1 (JUNO THERAPEUTICS, published 2016)

By UniProt entry, the sequences of proteins in these tests, tags left out. Residues count along the entry.
UniProt Q01973, 30-937: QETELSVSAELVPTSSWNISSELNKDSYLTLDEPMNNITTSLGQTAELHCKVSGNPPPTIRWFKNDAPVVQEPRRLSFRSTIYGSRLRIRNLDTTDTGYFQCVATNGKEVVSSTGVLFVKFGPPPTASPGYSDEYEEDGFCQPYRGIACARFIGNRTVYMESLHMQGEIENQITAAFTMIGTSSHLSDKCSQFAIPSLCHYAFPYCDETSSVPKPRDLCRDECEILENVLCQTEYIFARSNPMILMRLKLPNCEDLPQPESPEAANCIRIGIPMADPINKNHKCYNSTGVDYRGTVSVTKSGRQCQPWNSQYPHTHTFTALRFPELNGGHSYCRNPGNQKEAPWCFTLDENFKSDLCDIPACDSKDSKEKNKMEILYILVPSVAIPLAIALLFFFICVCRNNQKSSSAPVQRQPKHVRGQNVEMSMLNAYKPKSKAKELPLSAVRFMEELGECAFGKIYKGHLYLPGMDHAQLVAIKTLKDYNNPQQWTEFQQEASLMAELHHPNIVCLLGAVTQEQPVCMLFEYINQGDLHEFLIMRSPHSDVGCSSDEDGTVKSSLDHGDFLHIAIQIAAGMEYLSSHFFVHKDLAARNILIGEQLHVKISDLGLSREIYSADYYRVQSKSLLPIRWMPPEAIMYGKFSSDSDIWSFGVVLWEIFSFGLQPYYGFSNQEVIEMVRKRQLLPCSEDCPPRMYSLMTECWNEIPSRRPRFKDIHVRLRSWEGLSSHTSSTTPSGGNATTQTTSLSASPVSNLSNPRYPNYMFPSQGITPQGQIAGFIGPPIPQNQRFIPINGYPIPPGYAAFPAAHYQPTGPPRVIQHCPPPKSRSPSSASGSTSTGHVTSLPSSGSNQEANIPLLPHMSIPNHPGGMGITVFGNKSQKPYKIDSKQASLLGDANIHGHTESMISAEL

Columns and labels:
[1] = molecular target: T1, Human ROR1 (receptor tyrosine kinase-like orphan receptor 1) (human, UniProt Q01973); assay: flow cytometry on ROR1-expressing K562 and CHOK1 cells (n = 1)
T1 construct: also called hROR1; K562/ROR1

[2] = molecular target: T1, Human ROR1 (receptor tyrosine …); assay: flow cytometry competition, competitor 2 nM Myc-R12 scFv on ROR1/K562 cells (n = 1)
Description: (§1) Assays also were performed to assess competition of the clones with the reference antibody (R12 scFv), for binding to ROR1-expressing cells. VH clones were titrated against 2 nM Myc-R12 on ROR1/K562 cells and competition assessed with an anti-Myc-Alexa647 secondary antibody, and the half maximal inhibitory concentration (IC₅₀) determined for respective clones.

[3] = molecular target: T1, Human ROR1 (receptor tyrosine …); assay: flow cytometry on ROR1-expressing cells; predicted plateau relative to R12 scFv = 100%
Description: (§2) Additionally, percent (%) maximum (max) binding to ROR1-expressing cells and % max competition with the reference antibody (R12 scFv) were calculated. Percent max binding and competition values were calculated based on predicted plateaus (measured by Prism® using four parameter non-linear regression), relative to values for R12 scFv binding and inhibition, respectively, assigned as 100% in each study.

[4] = molecular target: T1, Human ROR1 (receptor tyrosine …); assay: competition with Myc-R12 scFv on ROR1/K562 cells; predicted plateau relative to R12 scFv = 100%
Description: as §1, §2

- EC50 [1]: 46 nM
- IC50 [2]: 74 nM
- % Max Binding [3]: 22%
- % Max Competition [4]: 44%
B1: Clone V357 (VHH)
VHH: EVQLVESGGGLVKPGGSLRLSCAASGFTFSNAWMSWVRQAPGKGLEWVGRIKSKTDGGTTDYAAPVKGRFTISRDDSKNTLYLQMNSLKTEDTAVYYCARDMVGAWLVLSYFDYWGQGTLVTVSS
notes: human VH-only single-domain antibody, no VL
